# Values quoted from earlier work as cited in patent publication US20010046957A1, “Method for treating hepatitis C” (priority 1999, published 2001).
# Target: type 2 isoform of IMPDH (Homo sapiens, UniProt P12268)
# Conditions: isoform expressed in activated T and B lymphocytes
substance,measurement,value
Mycophenolic acid [MPA],inhibition of type 2 isoform of IMPDH,"potent, selective, non-competitive inhibitor"
